This passage reports GI50 results from patent US12240855B2, “Pyrrolopyrazole derivative” (DAIICHI SANKYO COMPANY, LIMITED, priority 2019, dated 2025).

For one assay, the system named is HCT116 cells. As to the kind of experiment: cells. The settings on record: Homo sapiens, HCT-116, 72 h, read-out: Test Example 3 HCT116 GI50.
Assay [1] relates to PTDSS2 gene-disrupted (PTDSS2-KO) HCT116 cells. As to the kind of experiment: cells. To be noted: Homo sapiens, HCT-116, 72 h, read-out: Test Example 3 PTDSS2-KO HCT116 GI50.

On to `Cc1cc(C2c3c(-c4cccc5[nH]c(=O)oc45)n[nH]c3C(=O)N2CC(C)(F)F)ccc1Oc1ccc(OC(F)(F)F)cc1` (single isomer, unassigned) [Example 70, 7-[5-(2,2-Difluoropropyl)-4-{3-methyl-4-[4-(trifluoromethoxy)phenoxy]phenyl}-6-oxo-1,4,5,6-tetrahydropyrrolo[3,4-c]pyrazol-3-yl]-1,3-benzoxazol-2(3H)-one (enantiomer)], for which the results for the GI50 (in the assay on HCT116 cells; in assay [1]) were 7.8 µM and 0.031 µM, respectively.
Turning to `CC(F)(F)CN1C(=O)c2[nH]nc(-c3cccc4[nH]c(=O)oc34)c2C1c1ccc(Oc2ccc(CC(F)(F)F)cc2)cc1` (single isomer, unassigned) [Example 87, 7-[5-(2,2-Difluoropropyl)-6-oxo-4-{4-[4-(2,2,2-trifluoroethyl)phenoxy]phenyl}-1,4,5,6-tetrahydropyrrolo[3,4-c]pyrazol-3-yl]-1,3-benzoxazol-2(3H)-one (enantiomer)], the GI50 (in general, the concentration giving 50% growth inhibition) with HCT116 cells worked out at 3.1 µM; in assay [1], 0.054 µM.
The matching figures for `O=C1c2[nH]nc(-c3cccc4[nH]c(=O)oc34)c2C(c2ccc(Oc3ccccc3)nc2)N1CC1CC1` (stereo not drawn) [Example 4, 7-[5-(Cyclopropylmethyl)-6-oxo-4-(6-phenoxypyridin-3-yl)-1,4,5,6-tetrahydropyrrolo[3,4-c]pyrazol-3-yl]-1,3-benzoxazol-2(3H)-one]: 17 µM and 3.2 µM.
For `CC(F)(F)CN1C(=O)c2[nH]nc(-c3cccc4[nH]c(=O)oc34)c2C1c1ccc(Oc2ccc(OC(F)(F)F)cc2)c(OCCCC(F)(F)F)c1` (single isomer, unassigned) [Example 71, 7-[5-(2,2-Difluoropropyl)-6-oxo-4-{3-(4,4,4-trifluorobutoxy)-4-[4-(trifluoromethoxy)phenoxy]phenyl}-1,4,5,6-tetrahydropyrrolo[3,4-c]pyrazol-3-yl]-1,3-benzoxazol-2(3H)-one (enantiomer)], the GI50 in the assay with HCT116 cells was 3.6 µM; in assay [1] it was 0.019 µM.
`CC(F)(F)CN1C(=O)c2[nH]nc(-c3cccc4[nH]c(=O)oc34)c2C1c1ccc(Oc2ccc(OC(F)(F)F)c(Cl)c2)c(C(F)(F)F)c1` (single isomer, unassigned) [Example 61, 7-[4-{4-[3-Chloro-4-(trifluoromethoxy)phenoxy]-3-(trifluoromethyl)phenyl}-5-(2,2-difluoropropyl)-6-oxo-1,4,5,6-tetrahydropyrrolo[3,4-c]pyrazol-3-yl]-1,3-benzoxazol-2(3H)-one (enantiomer)]: the GI50 in the assay with HCT116 cells is 7.1 µM; in assay [1] it was 0.076 µM.
On the same counts, the results for `CC(=O)Nc1cccc(-c2n[nH]c3c2C(c2cc(Oc4ccccc4)ccc2F)N(CC(F)(F)F)C3=O)c1` (stereo not drawn) [Example 14, N-{3-[4-(2-Fluoro-5-phenoxy]phenyl)-6-oxo-5-(2,2,2-trifluoroethyl)-1,4,5,6-tetrahydropyrrolo[3,4-c]pyrazol-3-ylphenyl}acetamide] are 9.8 µM and 2.9 µM.
Consider `O=C1c2[nH]nc(-c3cccc4[nH]c(=O)oc34)c2C(c2cc(Oc3ccccc3)ccc2F)N1CC1CC1` (single isomer, unassigned) [Example 1, 7-[5-(Cyclopropylmethyl)-4-(2-fluoro-5-phenoxy]phenyl)-6-oxo-1,4,5,6-tetrahydropyrrolo[3,4-c]pyrazol-3-yl-1,3-benzoxazol-2(3H)-one (enantiomer)], for which the GI50 was 24 µM with HCT116 cells and 0.036 µM in assay [1].
On the same counts, the results for `CC(F)(F)CN1C(=O)c2[nH]nc(-c3cccc4[nH]c(=O)oc34)c2C1c1ccc(OC2CCOCC2)cc1` (stereo not drawn) [Example 29] are 7.3 µM and 1.1 µM.
As to `CC(F)(F)CN1C(=O)c2[nH]nc(-c3cccc4[nH]c(=O)oc34)c2C1c1cccc(Nc2ccccc2)c1` (stereo not drawn) [Example 89, 7-[4-(3-Anilinophenyl)-5-(2,2-difluoropropyl)-6-oxo-1,4,5,6-tetrahydropyrrolo[3,4-c]pyrazol-3-yl]-1,3-benzoxazol-2(3H)-one], the GI50 with HCT116 cells was 17 µM; in assay [1], 0.1 µM.
The matching figures for `CC(F)(F)CN1C(=O)c2[nH]nc(-c3cccc4[nH]c(=O)oc34)c2C1c1cccc(Oc2ccc(C(F)(F)F)cc2C(F)(F)F)c1` (single isomer, unassigned) [Example 86, 7-[4-{3-[2,4-Bis(trifluoromethyl)phenoxy]phenyl}-5-(2,2-difluoropropyl)-6-oxo-1,4,5,6-tetrahydropyrrolo[3,4-c]pyrazol-3-yl]-1,3-benzoxazol-2(3H)-one (enantiomer)]: 12 µM and 0.055 µM.
Consider `Cc1cc(C2c3c(-c4cccc5[nH]c(=O)oc45)n[nH]c3C(=O)N2CC(C)(F)F)cc(C)c1Cl` (single isomer, unassigned) [Example 18, 7-[4-(4-Chloro-3,5-dimethylphenyl)-5-(2,2-difluoropropyl)-6-oxo-1,4,5,6-tetrahydropyrrolo[3,4-c]pyrazol-3-yl]-1,3-benzoxazol-2(3H)-one (enantiomer)], for which the GI50 in the assay on HCT116 cells worked out at 12 µM; in assay [1] it was 0.054 µM.
Take `CC(F)(F)CN1C(=O)c2[nH]nc(-c3cccc4[nH]c(=O)oc34)c2C1c1ccc(Oc2nc(C(F)(F)F)cs2)cc1` (stereo not drawn) [Example 79, 7-[5-(2,2-Difluoropropyl)-6-oxo-4-(4-{[4-(trifluoromethyl)-1,3-thiazol-2-yl]oxy}phenyl)-1,4,5,6-tetrahydropyrrolo[3,4-c]pyrazol-3-yl]-1,3-benzoxazol-2(3H)-one]: the GI50 in the assay on HCT116 cells is 13 µM; in assay [1], 0.22 µM.
Take `CC(F)(F)CN1C(=O)c2[nH]nc(-c3cccc4[nH]c(=O)oc34)c2C1c1ccc(Oc2ccc(OC(F)(F)F)c(Cl)c2)c(OC(F)(F)F)c1` (single isomer, unassigned) [Example 68, 7-[4-{4-[3-Chloro-4-(trifluoromethoxy)phenoxy]-3-(trifluoromethoxy)phenoxy}-5-(2,2-difluoropropyl)-6-oxo-1,4,5,6-tetrahydropyrrolo[3,4-c]pyrazol-3-yl]-1,3-benzoxazol-2(3H)-one (enantiomer)]: the GI50 came to 5.1 µM with HCT116 cells and 0.07 µM in assay [1].
On to `COC(c1ccccc1)c1ccc(C2c3c(-c4cccc5[nH]c(=O)oc45)n[nH]c3C(=O)N2CC(C)(F)F)cc1` (mixture of isomers) [Example 90, 7-[5-(2,2-Difluoropropyl)-4-{4-[methoxy(phenyl)methyl]phenyl}-6-oxo-1,4,5,6-tetrahydropyrrolo[3,4-c]pyrazol-3-yl]-1,3-benzoxazol-2(3H)-one (mixture of diastereomers)], for which the GI50 with HCT116 cells is 16 µM; in assay [1], 0.8 µM.
`CC(F)(F)CN1C(=O)c2[nH]nc(-c3cccc4[nH]c(=O)oc34)c2C1c1cc(Oc2ccc(F)cc2)cc(C(F)(F)F)c1` (single isomer, unassigned) [Example 54, 7-{5-(2,2-Difluoropropyl)-4-[3-(4-fluorophenoxy)-5-(trifluoromethyl)phenyl]-6-oxo-1,4,5,6-tetrahydropyrrolo[3,4-c]pyrazol-3-yl}-1,3-benzoxazol-2(3H)-one (enantiomer)]: the GI50 in the assay with HCT116 cells amounted to 11 µM; in assay [1] it was 0.014 µM.
The matching figures for `CC(F)(F)CN1C(=O)c2[nH]nc(-c3cccc4[nH]c(=O)oc34)c2C1c1cccc(Oc2ccc(OC(F)(F)F)cc2)c1` (single isomer, unassigned) [Example 55, 7-[5-(2,2-Difluoropropyl)-6-oxo-4-{3-[4-(trifluoromethoxy)phenoxy]phenyl}-1,4,5,6-tetrahydropyrrolo[3,4-c]pyrazol-3-yl]-1,3-benzoxazol-2(3H)-one (enantiomer)]: 8.9 µM and 0.027 µM.
`CC(F)(F)CN1C(=O)c2[nH]nc(-c3cccc4[nH]c(=O)oc34)c2C1c1ccc(Oc2cccc(Cl)c2OC(F)(F)F)cc1` (single isomer, unassigned) [Example 40, 7-[4-{4-[3-Chloro-2-(trifluoromethoxy)phenoxy]phenyl}-5-(2,2-difluoropropyl)-6-oxo-1,4,5,6-tetrahydropyrrolo[3,4-c]pyrazol-3-yl]-1,3-benzoxazol-2(3H)-one (enantiomer)]: the GI50 worked out at 3.3 µM in the assay on HCT116 cells and 0.02 µM in assay [1].
Regarding `CC(F)(F)CN1C(=O)c2[nH]nc(-c3cccc4[nH]c(=O)oc34)c2C1c1ccc(Oc2ccc3onc(C(F)(F)F)c3c2)cc1` (single isomer, unassigned) [Example 84, 7-[5-(2,2-Difluoropropyl)-6-oxo-4-(4-{[3-(trifluoromethyl)-1,2-benzoxazol-5-yl]oxy}phenyl)-1,4,5,6-tetrahydropyrrolo[3,4-c]pyrazol-3-yl]-1,3-benzoxazol-2(3H)-one(enantiomer)], the GI50 in the assay on HCT116 cells is 10 µM; in assay [1], 0.035 µM.
On the same counts, the results for `CC(F)(F)CN1C(=O)c2[nH]nc(-c3cccc4[nH]c(=O)oc34)c2C1c1ccc(Sc2ccc(OC(F)(F)F)cc2)cc1` (single isomer, unassigned) [Example 44, 7-[5-(2,2-Difluoropropyl)-6-oxo-4-(4-{[4-(trifluoromethoxy)phenyl]sulfanyl}phenyl)-1,4,5,6-tetrahydropyrrolo[3,4-c]pyrazol-3-yl]-1,3-benzoxazol-2(3H)-one (enantiomer)] are 3.9 µM and 0.019 µM.
On to `CC(F)(F)CN1C(=O)c2[nH]nc(-c3cccc4[nH]c(=O)oc34)c2C1c1cccc(Oc2ccc(F)cc2)c1` (single isomer, unassigned; (-)) [Example 53, (−)-7-{5-(2,2-Difluoropropyl)-4-[3-(4-fluorophenoxy)phenyl]-6-oxo-1,4,5,6-tetrahydropyrrolo[3,4-c]pyrazol-3-yl}-1,3-benzoxazol-2(3H)-one], for which the GI50 in the assay on HCT116 cells worked out at 13 µM; in assay [1], 0.017 µM.
As for `CC(F)(F)CN1C(=O)c2[nH]nc(-c3cccc4[nH]c(=O)oc34)c2C1c1ccc(Oc2ccc(C(F)(F)F)c(C(F)(F)F)c2)cc1` (single isomer, unassigned) [Example 50, 7-[4-{4-[3,4-Bis(trifluoromethyl)phenoxy]phenyl}-5-(2,2-difluoropropyl)-6-oxo-1,4,5,6-tetrahydropyrrolo[3,4-c]pyrazol-3-yl]-1,3-benzoxazol-2(3H)-one (enantiomer)], the figures for the GI50 (with HCT116 cells; in assay [1]) were 6.5 µM and 0.018 µM, respectively.
